{"source": "BigSolDB 2.1", "settings": "in n-butanol, 293.2 K"}
{"smiles": "CC(C)(C)NSc1nc2ccccc2s1", "values": [{"measurement": "solubility (mole fraction)", "result": 0.0325}]}
